This passage reports IC50 results from US20260384443A1, “THIADIAZOLES AS GLUTAMINASE I INHIBITORS” (published 2026).

Amino acid sequences for entries named in this document (tags omitted). Residues count along the entry.
UniProt O94925, 55-669 limits assumed: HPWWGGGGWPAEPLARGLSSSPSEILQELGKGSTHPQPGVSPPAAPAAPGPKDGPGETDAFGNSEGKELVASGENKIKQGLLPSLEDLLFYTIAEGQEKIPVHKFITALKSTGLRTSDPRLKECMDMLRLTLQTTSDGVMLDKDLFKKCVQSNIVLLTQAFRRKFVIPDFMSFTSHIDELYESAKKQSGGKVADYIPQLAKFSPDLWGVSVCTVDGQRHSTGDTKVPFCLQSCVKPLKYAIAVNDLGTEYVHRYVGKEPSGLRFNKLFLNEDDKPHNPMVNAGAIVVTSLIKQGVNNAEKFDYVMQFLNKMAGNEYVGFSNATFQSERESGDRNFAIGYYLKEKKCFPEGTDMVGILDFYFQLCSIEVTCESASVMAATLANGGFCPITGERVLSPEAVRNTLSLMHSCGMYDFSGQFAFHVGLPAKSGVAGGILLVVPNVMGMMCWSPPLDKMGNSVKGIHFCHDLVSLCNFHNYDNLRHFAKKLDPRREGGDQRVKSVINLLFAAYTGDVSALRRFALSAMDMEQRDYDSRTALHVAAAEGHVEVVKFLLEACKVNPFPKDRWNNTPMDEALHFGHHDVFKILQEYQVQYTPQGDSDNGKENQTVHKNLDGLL
UniProt O94925, 73-669 limits assumed: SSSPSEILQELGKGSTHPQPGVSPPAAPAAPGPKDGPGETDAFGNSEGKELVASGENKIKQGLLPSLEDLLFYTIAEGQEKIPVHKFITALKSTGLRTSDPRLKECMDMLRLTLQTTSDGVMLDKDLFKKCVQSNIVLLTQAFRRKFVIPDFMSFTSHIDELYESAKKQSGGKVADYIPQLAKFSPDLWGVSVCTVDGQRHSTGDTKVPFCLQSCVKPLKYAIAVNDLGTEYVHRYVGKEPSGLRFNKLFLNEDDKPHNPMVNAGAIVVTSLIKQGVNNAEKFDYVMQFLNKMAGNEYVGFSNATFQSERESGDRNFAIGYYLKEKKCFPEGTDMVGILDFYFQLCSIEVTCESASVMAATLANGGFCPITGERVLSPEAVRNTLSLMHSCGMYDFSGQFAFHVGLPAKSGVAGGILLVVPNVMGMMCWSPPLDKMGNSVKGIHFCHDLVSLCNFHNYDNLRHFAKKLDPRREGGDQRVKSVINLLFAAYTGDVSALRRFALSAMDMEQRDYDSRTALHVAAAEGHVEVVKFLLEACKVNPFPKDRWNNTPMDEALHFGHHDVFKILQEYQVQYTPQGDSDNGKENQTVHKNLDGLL

Assay [1] deals with T1, GLS1 (Homo sapiens, UniProt O94925). In words: GLS1 cell assay: intracellular glutamate level in A549 cells (Glutamine/Glutamate-Glo). Particulars: read-out: Cell IC50, 2 h compound pre-incubation, then 24 h with L-Gln.
Assay [2] concerns the target T1, GLS1. In words: GLS1 enzymatic assay (three-stage coupled endpoint assay: GLS1/GDH/diaphorase, resorufin fluorescence). Particulars: read-out: Enzyme IC50.

What is called IC50 is the concentration needed to halve the response being measured. Take `O=C(Nc1nnc(N[C@@H]2CCN(c3cccnn3)C2)s1)[C@@H]1CCCN(Cc2ccc(OC(F)(F)F)cc2)C1`: the IC50 on GLS1 [1] was determined as 24.6 nM; on GLS1 [2], 115 nM.

Consider `Cc1ccccc1CN1CCC([C@H](C(=O)Nc2nnc(N[C@@H]3CCN(c4cccnn4)C3)s2)C2CCC2)CC1` (single isomer, unassigned) [Example 218], for which the IC50 came to 150 nM on GLS1 [1] and 254 nM on GLS1 [2].

Regarding `CSc1ccccc1CN1CCC[C@@H](OCC(=O)Nc2nnc(N[C@@H]3CCN(c4cccnn4)C3)s2)C1` (single isomer, unassigned) [Example 104], the IC50 at GLS1 [1] came out at 5.3 nM; at GLS1 [2], 54.4 nM.

With `Cc1cc(CN2CCC[C@@H](CC(=O)Nc3nnc(N[C@@H]4CCN(c5cccnn5)C4)s3)C2)cc(OC(C)C)c1`, the IC50 came to 13.7 nM on GLS1 [1] and 30.7 nM on GLS1 [2].

Regarding `Cc1ccccc1CN1CCC([C@@H](CC2CC2)C(=O)Nc2nnc(N[C@@H]3CCN(c4cccnn4)C3)s2)CC1` (single isomer, unassigned) [Example 221], the IC50 on GLS1 [1] was 155 nM; at GLS1 [2], 296 nM.

As for `Cc1ccccc1CN1CCC(C(C(=O)Nc2nnc(N[C@@H]3CCN(c4cccnn4)C3)s2)C(C)C)CC1` (stereo partly shown), the values for the 50% inhibitory concentration (IC50) at GLS1 [1] and at GLS1 [2] were 32.1 nM and 78.2 nM, respectively.

For the compound `CC(C(=O)Nc1nnc(N[C@@H]2CCN(c3cccnn3)C2)s1)C1CCN(Cc2cncc(C(F)(F)F)c2)CC1` (stereo partly shown), the IC50 was determined as 14 nM on GLS1 [1] and 34.9 nM at GLS1 [2].

`Cc1ccc([C@H](C)N2CCC[C@@H](CC(=O)Nc3nnc(N[C@@H]4CCN(c5cccnn5)C4)s3)C2)c(F)c1` (single isomer, unassigned) [Example 263]: the IC50 at GLS1 [1] is 11.1 nM; on GLS1 [2], 29.7 nM.

For `CC1(C)CCC(CN2CCN(CC(=O)Nc3nnc(N[C@@H]4CCN(c5cccnn5)C4)s3)CC2)CC1`, the figures for the IC50 on GLS1 [1] and at GLS1 [2] were 5.5 nM and 110 nM, respectively.

Consider `CC(C)[C@H]1CC[C@H](N2CCO[C@H](CC(=O)Nc3nnc(N[C@@H]4CCN(c5cccnn5)C4)s3)C2)CC1` (single isomer, unassigned) [Example 245], for which the IC50 at GLS1 [1] turned out to be 2.7 nM; at GLS1 [2], 21.8 nM.

As to `CC(C)Sc1ccccc1CN1CCC(CC(=O)Nc2nnc(N[C@@H]3CCN(c4cccnn4)C3)s2)CC1`, the IC50 on GLS1 [1] came out at 6.2 nM; on GLS1 [2], 49.6 nM.

As for `O=C(Nc1nnc(N[C@@H]2CCN(c3cccnn3)C2)s1)OC1CCN(Cc2ccc(OC(F)(F)F)cc2)CC1`, the IC50 was 10.6 nM at GLS1 [1] and 223 nM on GLS1 [2].

On to `CC(C)OC(=O)c1ccc(CN2CCC(CC(=O)Nc3nnc(N[C@@H]4CCN(c5cccnn5)C4)s3)CC2)cc1`, for which the values for the IC50 at GLS1 [1] and on GLS1 [2] were 8 nM and 40.2 nM, respectively.

As for `O=C(CC1CN(C2CCC3(CCC3)CC2)CCO1)Nc1nnc(N[C@@H]2CCN(c3cccnn3)C2)s1` (stereo partly shown), the IC50 on GLS1 [1] was 9 nM; on GLS1 [2], 36.6 nM.

Take `Cc1ccccc1CN1CCC([C@H](C(=O)Nc2nnc(N[C@@H]3CCN(c4cccnn4)C3)s2)C(C)C)CC1` (single isomer, unassigned) [Example 225]: the figures for the IC50 on GLS1 [1] and at GLS1 [2] were 20.1 nM and 66.3 nM, respectively.

Take `O=C(CC1CCC2(CC1)CCN(Cc1ccc(Br)cn1)CC2)Nc1nnc(N[C@@H]2CCN(c3cccnn3)C2)s1`: the results for the IC50 at GLS1 [1] and at GLS1 [2] were 23.8 nM and 17.5 nM, respectively.

`CCc1ccc(CN2CCC[C@@H](CC(=O)Nc3nnc(N[C@@H]4CCN(c5cccnn5)C4)s3)C2)c(F)c1`: the IC50 at GLS1 [1] turned out to be 5.7 nM; at GLS1 [2] it was 23.6 nM.

Regarding `O=C(Nc1nnc(N[C@@H]2CCN(c3cccnn3)C2)s1)[C@H]1CCCN(Cc2cccc(OC(F)(F)F)c2)C1`, the IC50 at GLS1 [1] turned out to be 11.7 nM; at GLS1 [2], 62.7 nM.

Regarding `O=C(C[C@H]1CN(C2CC3(CCCC3)C2)CCO1)Nc1nnc(N[C@@H]2CCN(c3cccnn3)C2)s1` (single isomer, unassigned) [Example 267], the IC50 at GLS1 [1] was 1.7 nM; on GLS1 [2], 16.4 nM.

In the case of `Cc1cc(CN2CCC(CC(=O)Nc3nnc(N[C@@H]4CCN(c5cccnn5)C4)s3)CC2)cc(OC(F)(F)F)c1`, the IC50 on GLS1 [1] was found to be 1.5 nM; at GLS1 [2] it was 71.4 nM.

Regarding `O=C(CSC1CCN(Cc2ccc(OC(F)(F)F)cc2)CC1)Nc1nnc(N[C@@H]2CCN(c3cccnn3)C2)s1`, the IC50 is 1.8 nM at GLS1 [1] and 96.3 nM at GLS1 [2].

On to `COc1ccc(CN2CC(CC(=O)Nc3nnc(N[C@@H]4CCN(c5cccnn5)C4)s3)CC3(CC3)C2)nc1C(F)(F)F` (stereo partly shown), for which the half-inhibitory concentration (IC50) came out at 26 nM on GLS1 [1] and 71.9 nM on GLS1 [2].

Consider `CC(C)(C1CCCCC1)N1CCOC(CC(=O)Nc2nnc(N[C@@H]3CCN(c4cccnn4)C3)s2)C1` (stereo partly shown), for which the IC50 at GLS1 [1] is 1.9 nM; on GLS1 [2] it was 28.1 nM.

Take `CC(c1cc(F)cc(F)c1)N1CCC[C@@H](CC(=O)Nc2nnc(N[C@@H]3CCN(c4cccnn4)C3)s2)C1` (stereo partly shown): the figures for the IC50 at GLS1 [1] and at GLS1 [2] were 9.8 nM and 32.1 nM, respectively.

Regarding `CC(C)N1CCN(Cc2cccc(OC(F)F)c2)[C@H](CC(=O)Nc2nnc(N[C@@H]3CCN(c4cccnn4)C3)s2)C1` (single isomer, unassigned) [Example 250], the results for the IC50 on GLS1 [1] and on GLS1 [2] were 74.8 nM and 93.9 nM, respectively.

In the case of `CC(C)Oc1cccnc1CN1CCC(CC(=O)Nc2nnc(N[C@@H]3CCN(c4cccnn4)C3)s2)CC1`, the IC50 was 269 nM on GLS1 [1] and 37.8 nM on GLS1 [2].

`O=C(C[C@H]1CCCN(Cc2ccc(OC(F)(F)F)cc2)C1)Nc1nnc(N[C@@H]2CCN(c3cccnn3)C2)s1`: the IC50 is 12.5 nM on GLS1 [1] and 28.8 nM on GLS1 [2].

For the compound `CC(C)Oc1ccccc1CCN1CCC[C@@H](CC(=O)Nc2nnc(N[C@@H]3CCN(c4cccnn4)C3)s2)C1`, the half-inhibitory concentration (IC50) worked out at 83 nM at GLS1 [1] and 32.5 nM on GLS1 [2].

Take `O=C(CC1CCN(Cc2ccccc2Cl)CC1)Nc1nnc(N[C@@H]2CCN(c3cccnn3)C2)s1`: the values for the IC50 at GLS1 [1] and at GLS1 [2] were 18.2 nM and 43.6 nM, respectively.

Consider `CSc1ccccc1CN1CCCC(OCC(=O)Nc2nnc(N[C@@H]3CCN(c4cccnn4)C3)s2)C1` (stereo partly shown), for which the values for the IC50 at GLS1 [1] and at GLS1 [2] were 5.8 nM and 69.4 nM, respectively.

In the case of `Cc1ccc(CN2CCC(CC(=O)Nc3nnc(N[C@@H]4CCN(c5cccnn5)C4)s3)CC2)c(OC(C)C)c1`, the IC50 on GLS1 [1] was found to be 48.5 nM; on GLS1 [2], 33.7 nM.

With `CC1(C)CCC(N2CCOC(CC(=O)Nc3nnc(N[C@@H]4CCN(c5cccnn5)C4)s3)C2)CC1` (single isomer, unassigned) [Example 109], the IC50 at GLS1 [1] is 18.9 nM; on GLS1 [2], 35.6 nM.

In the case of `CC(C)COC(=O)c1cc(CN2CCC(CC(=O)Nc3nnc(N[C@@H]4CCN(c5cccnn5)C4)s3)CC2)ccn1`, the IC50 at GLS1 [1] was determined as 27.9 nM; on GLS1 [2], 18.1 nM.

Regarding `CC(C)Sc1ccccc1CN1CCC2(CCN(CC(=O)Nc3nnc(N[C@@H]4CCN(c5cccnn5)C4)s3)CC2)C1`, the IC50 on GLS1 [1] is 10 nM; on GLS1 [2], 37.6 nM.

For `CC(C)Oc1ccccc1CN1CCC[C@H](CC(=O)Nc2nnc(N[C@@H]3CCN(c4cccnn4)C3)s2)C1`, the values for the IC50 at GLS1 [1] and at GLS1 [2] were 112 nM and 45.9 nM, respectively.

For the compound `CN(Cc1cccc(OC(F)(F)F)c1)C1(CC(=O)Nc2nnc(N[C@@H]3CCN(c4cccnn4)C3)s2)CCC1`, the IC50 at GLS1 [1] was determined as 6.4 nM; at GLS1 [2] it was 126 nM.

Consider `O=C(C[C@@H]1CN(C2CCC3(CCC3)CC2)CCO1)Nc1nnc(N[C@@H]2CCN(c3cccnn3)C2)s1` (single isomer, unassigned) [Example 276], for which the IC50 on GLS1 [1] is 14.6 nM; on GLS1 [2] it was 31.2 nM.

As to `O=C(CC1CN(C2CC3(CCCC3)C2)CCO1)Nc1nnc(N[C@@H]2CCN(c3cccnn3)C2)s1` (stereo partly shown), the IC50 on GLS1 [1] is 3.1 nM; at GLS1 [2] it was 13.3 nM.

For `O=C(CC1CN(C2CCCC2)CCO1)Nc1nnc(N[C@@H]2CCN(c3cccnn3)C2)s1` (stereo partly shown), the IC50 stood at 112 nM on GLS1 [1] and 52.2 nM on GLS1 [2].

With `O=C(CC1CC2(C1)CN(Cc1cccc(OC(F)(F)F)c1)C2)Nc1nnc(N[C@@H]2CCN(c3cccnn3)C2)s1`, the values for the IC50 at GLS1 [1] and at GLS1 [2] were 7.2 nM and 22.9 nM, respectively.

`C[C@H](c1cc(F)cc(F)c1)N1CCC[C@@H](CC(=O)Nc2nnc(N[C@@H]3CCN(c4cccnn4)C3)s2)C1` (single isomer, unassigned) [Example 241]: the IC50 at GLS1 [1] came out at 5.6 nM; at GLS1 [2] it was 49.6 nM.

As for `O=C(CC1CCC2(CC1)CCN(Cc1ccc(Cl)cn1)CC2)Nc1nnc(N[C@@H]2CCN(c3cccnn3)C2)s1`, the IC50 at GLS1 [1] was 14.3 nM; on GLS1 [2], 19.6 nM.

As to `Cc1cc(F)cc(CN2CCC[C@@H](CC(=O)Nc3nnc(N[C@@H]4CCN(c5cccnn5)C4)s3)C2)c1`, the IC50 on GLS1 [1] worked out at 5.5 nM; on GLS1 [2] it was 19.8 nM.

`CC(C(=O)Nc1nnc(N[C@@H]2CCN(c3cccnn3)C2)s1)C1CCN(Cc2ccc(OC(F)(F)F)cc2)CC1` (stereo partly shown): the IC50 on GLS1 [1] is 8.1 nM; on GLS1 [2], 68.9 nM.

On to `Cc1ccc(C(C)N2CCC[C@@H](CC(=O)Nc3nnc(N[C@@H]4CCN(c5cccnn5)C4)s3)C2)c(F)c1` (stereo partly shown), for which the IC50 at GLS1 [1] is 6.6 nM; on GLS1 [2], 22.6 nM.

On to `CC(C)Oc1cccnc1CN1CCC(CC(=O)Nc2nnc(N[C@@H]3CCN(c4cccnn4)C3)s2)CC1(C)C` (stereo partly shown), for which the IC50 stood at 327 nM at GLS1 [1] and 71.3 nM on GLS1 [2].

On to `O=C(C[C@@H]1CN(C2CCC3(CCCC3)CC2)CCO1)Nc1nnc(N[C@@H]2CCN(c3cccnn3)C2)s1` (single isomer, unassigned) [Example 272], for which the IC50 at GLS1 [1] was determined as 2.3 nM; at GLS1 [2], 16.4 nM.

For the compound `CN1CCN(Cc2cccc(OC(F)(F)F)c2)[C@@H](CC(=O)Nc2nnc(N[C@@H]3CCN(c4cccnn4)C3)s2)C1` (single isomer, unassigned) [Example 65], the IC50 at GLS1 [1] was found to be 12.7 nM; on GLS1 [2], 35.2 nM.

Regarding `CC[C@@H](C(=O)Nc1nnc(N[C@@H]2CCN(c3cccnn3)C2)s1)C1CCN(Cc2ccccc2OC(C)C)CC1` (single isomer, unassigned) [Example 209], the IC50 was 116 nM at GLS1 [1] and 80 nM at GLS1 [2].

For the compound `CC(C)N1CCN(Cc2cccc(OC(F)F)c2)C(CC(=O)Nc2nnc(N[C@@H]3CCN(c4cccnn4)C3)s2)C1` (stereo partly shown), the IC50 on GLS1 [1] turned out to be 49.9 nM; on GLS1 [2] it was 56.4 nM.
